# Reference: ChEMBL document CHEMBL1131447 (J Med Chem, 1998)
# By UniProt entry, the sequences of proteins in these tests, tags left out.
# UniProt P18901, whole entry: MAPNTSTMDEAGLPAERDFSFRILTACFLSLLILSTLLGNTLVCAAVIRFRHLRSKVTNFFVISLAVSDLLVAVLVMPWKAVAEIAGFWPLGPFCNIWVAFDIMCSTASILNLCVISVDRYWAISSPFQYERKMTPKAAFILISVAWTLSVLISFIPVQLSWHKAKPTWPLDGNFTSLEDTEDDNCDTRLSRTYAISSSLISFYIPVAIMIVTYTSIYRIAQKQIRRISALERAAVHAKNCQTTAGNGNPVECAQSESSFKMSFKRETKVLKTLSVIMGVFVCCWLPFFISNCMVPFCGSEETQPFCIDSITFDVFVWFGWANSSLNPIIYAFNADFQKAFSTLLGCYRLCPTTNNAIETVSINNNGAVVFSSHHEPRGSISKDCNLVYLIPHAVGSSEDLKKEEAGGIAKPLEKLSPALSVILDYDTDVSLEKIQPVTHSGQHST
# Biological target: D(1A) dopamine receptor (Rattus norvegicus, UniProt P18901)
# Assay: biochemical
smiles,measurement,value
Cc1nc2n(c(=O)c1CCN1CCC(c3noc4cc(F)ccc34)CC1)CCCC2 [RISPERIDONE],Ki,0.251 µM
